Measured values from patent publication US20260167620A1, “MULTIFUNCTIONAL COMPOUND CAPABLE OF DEGRADING BTK KINASE, AND COMPOSITION AND USE” (HANGZHOU HEALZEN THERAPEUTICS CO., LTD., priority 2021, published 2026).

The chains behind the UniProt entries cited, without tags or fusion partners.
UniProt Q06187, whole entry: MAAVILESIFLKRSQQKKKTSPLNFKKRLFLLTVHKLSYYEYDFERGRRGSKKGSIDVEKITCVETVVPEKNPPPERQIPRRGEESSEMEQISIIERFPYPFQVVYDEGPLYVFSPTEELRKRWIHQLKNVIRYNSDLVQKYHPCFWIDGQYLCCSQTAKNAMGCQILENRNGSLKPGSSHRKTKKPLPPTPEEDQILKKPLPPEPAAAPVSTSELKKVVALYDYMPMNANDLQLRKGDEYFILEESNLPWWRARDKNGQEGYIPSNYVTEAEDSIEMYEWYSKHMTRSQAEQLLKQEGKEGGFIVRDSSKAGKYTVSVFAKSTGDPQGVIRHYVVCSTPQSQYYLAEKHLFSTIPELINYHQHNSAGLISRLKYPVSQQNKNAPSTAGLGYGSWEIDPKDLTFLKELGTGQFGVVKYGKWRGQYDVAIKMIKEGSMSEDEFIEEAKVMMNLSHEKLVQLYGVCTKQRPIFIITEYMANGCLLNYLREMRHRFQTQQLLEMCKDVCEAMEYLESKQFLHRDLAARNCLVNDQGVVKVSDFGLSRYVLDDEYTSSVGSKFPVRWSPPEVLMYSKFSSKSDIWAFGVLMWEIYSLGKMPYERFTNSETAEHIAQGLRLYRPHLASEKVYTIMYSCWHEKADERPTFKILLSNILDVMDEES

Tests used:
[1] = molecular target: BTK (Homo sapiens, UniProt Q06187); experiment: BTK degradation activity test in Mino cells (Westernblot or Elisa); type: cell-based; conditions: 24-72 h incubation
Experimental: The Mino cell line cells are 0.5˜1 million/well in 6-well plates. The compounds are diluted to different concentrations, added to the plate, and after 24-72 h of incubation, the cells are collected. After the cells were lysed, the total protein concentration in each well was determined with a BCA kit. The amount of BTK is determined using the Westernblot or Elisa method.

[2] = system: Mino cells; experiment: Inhibitory activity on Mino cell proliferation (MTS); conditions: read-out: Mino IC50, 72 h or 168 h
Experimental: (§1) The anti-tumor efficacy of the compounds was tested by measuring their inhibitory effects on OCI-LY10 and Mino cell proliferation. OCI-LY10 and Mino cells were cultured in RPM-1640 medium containing […] fetal calf serum. OCI-LY10 and Mino cells were digested, inoculated in a 96-well plate at a cell concentration of 10000 cells/well, and incubated overnight at 37° C., 5% CO2. Compounds of different concentrations (1000 nM, 4-fold dilution, 8 points) were added to the 96-well plate and incubated for 72 h or 168 h at 37° C. and […], and then 20 μL of MTS was added to each well. After incubation for 2 h, 25 μl of 10% SDS was added to each well to terminate the reaction. The absorbance at 490 nm and 650 nm were measured with a microplate reader. IC50 was calculated using GraphPad Prism 5.0.

[3] = Rat absorption test; conditions: SD rats, intragastric 10 mg/kg, plasma
Experimental: (§2) SD Rats were used as experimental animals, and drugs were administered intragastrically at 10 mg/kg (5% DMSO+5% Solutol+90% normal saline). The blood collection time points for intragastric administration were 0.25, 0.5, 1, 2, 4, 6, 8, and 24 h. 0.3 ml of whole blood was taken, and 0.1 ml of plasma was taken after centrifugation and analyzed by LC-MS.

[4] = system: OCI-LY10 cells; experiment: Inhibitory activity on OCI-LY10 cell proliferation (MTS); conditions: read-out: OCI-ly10 IC50, 72 h or 168 h
Experimental: as §1

[5] = Liver microsomal metabolic stability, mouse; conditions: mouse liver microsomes, NADPH, 37° C.
Experimental: (§3) Under the condition of ice bath, 1 mg of human or Mouse liver microparticles was add to PBS (1 mL) buffer, then NADPH (20 μL) was added, and incubated at 37° C. for 5 min. 10 μL of the compound to be tested was added, then suck several times with a pipette and divide into 3 aliquots of 330 μL; each and then samples were taken at 0, 15, 30, 60 and 120 min respectively. 10 μL of the solution was taken with a pipette each time and added to 490 μL of the solution containing the internal standard compound. The resulting solution was vortexed and then placed on ice, and then sampling at another time point continues. All samples were centrifuged at 10,000 rpm for 10 min, and the supernatant was taken for LC/MS testing. The metabolism of the compound in liver microsomes was calculated based on the peak area.

[6] = Liver microsomal metabolic stability, human; conditions: human liver microsomes, NADPH, 37° C.
Experimental: as §3

[7] = Mouse absorption test; conditions: mice, intragastric 10 mg/kg, plasma
Experimental: as §2, with “Experimental method: mice” for “SD Rats”, “Solutol+90%” for “Solutol+90% normal”

| Structure (SMILES) | DC50 [1] [nM] | IC50 [2] [nM] | DNAUC [3] | IC50 [4] [nM] | Thalf (min) Mouse [5] [min] | Thalf (min) Human [6] [min] | DNAUC [7] |
| --- | --- | --- | --- | --- | --- | --- | --- |
| NC(=O)c1ncc(N2CCCCC2)nc1Nc1ccc(C2CCN(C[C@@H]3CCN(c4ccc5c(c4)C(=O)N(C4CCC(=O)NC4=O)C5=O)C3)CC2)cc1 (some centres unmarked) | < 10 | 10.6 | 164 AUC (h*ng/mL)/dose (mg/kg) | 11 |  |  |  |
| CN1CCN([C@@H]2CCCN(c3cnc(C(N)=O)c(Nc4ccc(C5CCN(C[C@H]6CCN(c7ccc8c(c7)C(=O)N(C7CCC(=O)NC7=O)C8=O)C6)CC5)cc4)n3)C2)C1=O (some centres unmarked) | < 10 |  |  |  | 47.1 | 12.4 | 1088 AUC (h*ng/mL)/dose (mg/kg) |
